Measurements as given in patent EP1263503B1, “USE OF CYANOQUINOLINES FOR TREATING OR […] POLYPS” (Wyeth Holdings Corporation, priority 2000, dated 2001).

System: intestinal polyps (adenomas)
Details: polyps assessed at day 61

CCOc1cc2ncc(C#N)c(Nc3ccc(F)c(Cl)c3)c2cc1NC(=O)C=CCN(C)C [Example 399, 4-Dimethylamino-but-2-enoic acid [4-(3-chloro-4-fluoro-phenylamino)-3-cyano-7-ethoxy-quinolin-6-yl]-amide]
Mean # Polyps ± S.D. (Group I: 5 mg/kg/day in chow ad libitum for 60 days, control 32.6 ± 19.1): 15.6 ± 6.0 | Mean # Polyps ± S.D. (Group II: 150 mg/kg/day in chow ad libitum for 60 days, control 19.5 ± 14.1): 2.6 ± 1.6

Where two headings read alike, the source gives them in different places.
